Experimental findings from US9221831B2, “Buprenorphine analogs” (dated 2015) are described below.

The chains behind the UniProt entries cited, without tags or fusion partners.
UniProt P35372, whole entry: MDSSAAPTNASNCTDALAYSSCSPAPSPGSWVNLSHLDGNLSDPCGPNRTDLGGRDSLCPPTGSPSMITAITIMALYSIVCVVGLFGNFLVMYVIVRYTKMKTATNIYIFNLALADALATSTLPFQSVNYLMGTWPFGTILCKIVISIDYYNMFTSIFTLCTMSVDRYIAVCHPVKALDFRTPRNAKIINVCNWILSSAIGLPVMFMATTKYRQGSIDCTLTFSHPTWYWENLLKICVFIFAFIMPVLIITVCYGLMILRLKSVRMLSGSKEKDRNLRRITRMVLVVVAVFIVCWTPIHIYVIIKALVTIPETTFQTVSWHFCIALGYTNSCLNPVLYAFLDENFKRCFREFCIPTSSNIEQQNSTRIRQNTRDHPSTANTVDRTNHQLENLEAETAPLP
UniProt P41146, whole entry: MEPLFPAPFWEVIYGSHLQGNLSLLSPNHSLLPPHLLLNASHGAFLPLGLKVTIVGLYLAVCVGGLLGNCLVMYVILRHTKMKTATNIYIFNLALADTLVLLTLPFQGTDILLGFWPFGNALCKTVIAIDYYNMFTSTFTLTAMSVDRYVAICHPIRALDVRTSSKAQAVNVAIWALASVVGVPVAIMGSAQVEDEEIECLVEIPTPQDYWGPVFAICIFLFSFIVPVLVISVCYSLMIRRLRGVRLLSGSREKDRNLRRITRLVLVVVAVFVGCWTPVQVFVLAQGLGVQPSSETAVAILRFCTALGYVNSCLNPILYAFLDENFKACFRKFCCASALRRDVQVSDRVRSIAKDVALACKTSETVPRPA
UniProt P41145, whole entry: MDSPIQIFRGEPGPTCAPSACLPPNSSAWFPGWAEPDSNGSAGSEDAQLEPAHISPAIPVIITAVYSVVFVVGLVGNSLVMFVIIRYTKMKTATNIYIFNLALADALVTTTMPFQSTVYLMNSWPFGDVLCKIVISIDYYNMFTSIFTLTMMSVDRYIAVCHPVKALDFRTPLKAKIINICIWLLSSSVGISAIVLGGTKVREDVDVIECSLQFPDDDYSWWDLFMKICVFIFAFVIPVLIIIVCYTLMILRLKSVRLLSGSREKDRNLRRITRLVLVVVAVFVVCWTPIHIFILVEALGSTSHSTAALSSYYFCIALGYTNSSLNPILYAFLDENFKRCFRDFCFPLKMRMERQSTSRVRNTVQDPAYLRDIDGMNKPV

Usually pEC50 stands for the negative decadic logarithm of the EC50, by convention in mol/L.

The target in assay [1] is T1, δ opioid receptor (Homo sapiens (Human), UniProt P41143). Description: δ-opioid receptor functional assay ([35S]GTPγS). To be noted: for GTPγS Opioid Receptor δ Emax: [35S]GTPγS functional assay; for pEC50: read-out: GTPγS Opioid Receptor δ EC50, [35S]GTPγS functional assay. For orientation: GTPγS resists hydrolysis and so accumulates on activated G proteins.
Assay [2] has as its target T2, μ-opioid receptor (Homo sapiens (Human), UniProt P35372). Description: μ-opioid receptor binding assay ([3H]-diprenorphine dose-displacement). To be noted: read-out: Binding Affinity, Opioid Receptor μ.
The target in assay [3] is T2, μ-opioid receptor. Description: μ-opioid receptor functional assay ([35S]GTPγS). Particulars: for pEC50: read-out: GTPγS Opioid Receptor μ EC50, [35S]GTPγS functional assay.
The target of assay [4] is T1, δ opioid receptor. Description: δ-opioid receptor binding assay ([3H]-Naltrindole dose-displacement). Particulars: read-out: Binding Affinity, Opioid Receptor δ.
The target in assay [5] is T3, human opioid receptor-like (ORL-1) (Homo sapiens (Human), UniProt P41146). Description: ORL-1 receptor binding assay ([3H]-nociceptin).
Assay [6] addresses T4, κ opioid receptor (Homo sapiens (Human), UniProt P41145). Description: κ-opioid receptor binding assay ([3H]-U69,593 dose-displacement). To be noted: read-out: Binding Affinity, Opioid Receptor κ.
In assay [7] the target is T4, κ opioid receptor. Description: κ-opioid receptor functional assay ([35S]GTPγS). To be noted: for GTPγS Opioid Receptor κ Emax: [35S]GTPγS functional assay; for pEC50: read-out: GTPγS Opioid Receptor κ EC50, [35S]GTPγS functional assay.
The target in assay [8] is T3, human opioid receptor-like (ORL-1). Description: ORL-1 receptor functional assay ([35S]GTPγS).

pEC50, pKi: −log10 of the molar value. Some compounds may have been tested in ways that are not shown here.

In the case of “(4R,4aS,6S,7R,7aR,12bS)-6-((benzo[d]oxazol-2-ylthio)methyl)-3-(cyclopropylmethyl)-7,9-dimethoxy-1,2,3,4,5,6,7,7a-octahydro-4a,7-ethano-4,12-methanobenzofuro[3,2-e]isoquinoline”, at δ opioid receptor [1], the “GTPγS Opioid Receptor δ Emax” value came to 78.67% and the pEC50 is 6.37. Further, the pKi on μ-opioid receptor [2] is 7.43. Further, on μ-opioid receptor [3] ([35S]GTPγS functional assay), the “GTPγS Opioid Receptor μ EC50” value is recorded as “Inactive” and the “GTPγS Opioid Receptor μ Emax” value amounted to 1.00%. The pKi at δ opioid receptor [4] is 5.62. Moreover, the “Binding Affinity, ORL-1” value in assay [5] is on record as “Inactive”. Also, the pKi on κ opioid receptor [6] was 8.17. For the same substance, at κ opioid receptor [7], the “GTPγS Opioid Receptor κ Emax” value is recorded as 90.75% and the negative-log EC50 (pEC50) was 6.97.
Regarding “(S)-((4R,4aS,6R,7R,7aR,12bS)-3-(cyclopropylmethyl)-7,9-dimethoxy-1,2,3,4,5,6,7,7a-octahydro-4a,7-ethano-4,12-methanobenzofuro[3,2-e]isoquinolin-6-yl)methyl 2-amino-3-methylbutanoate”, the pKi is 7.22 on μ-opioid receptor [2] and 8.99 at κ opioid receptor [6]. The “GTPγS Opioid Receptor μ Emax” value at μ-opioid receptor [3] ([35S]GTPγS functional assay) was 11.33%. In addition, the negative-log EC50 (pEC50) on μ-opioid receptor [3] is 7.10; on κ opioid receptor [7], 7.32. For the same substance, the “GTPγS Opioid Receptor κ Emax” value at κ opioid receptor [7] was determined as 35.83%.
Regarding “(4R,4aS,6R,7R,7aR,12bS)-6-((benzyloxy)methyl)-3-(cyclopropylmethyl)-7-methoxy-1,2,3,4,5,6,7,7a-octahydro-4a,7-ethano-4,12-methanobenzofuro[3,2-e]isoquinolin-9-amine”, the “GTPγS Opioid Receptor δ Emax” value at δ opioid receptor [1] worked out at 81.00%. Besides, the pEC50 at δ opioid receptor [1] was 7.83; on μ-opioid receptor [3], 7.97; in assay [8] (read-out: GTPγS ORL-1 EC50, [35S]GTPγS functional assay), 5.78; at κ opioid receptor [7], 8.37. Besides, the pKi at μ-opioid receptor [2] was 8.82; on δ opioid receptor [4], 7.82; in assay [5] (read-out: Binding Affinity, ORL-1), 6.07; on κ opioid receptor [6], 10.05. Besides, the “GTPγS Opioid Receptor μ Emax” value on μ-opioid receptor [3] ([35S]GTPγS functional assay) was 41.33%. The “GTPγS ORL-1 Emax” value in assay [8] ([35S]GTPγS functional assay) worked out at 22.67%. Further, the “GTPγS Opioid Receptor κ Emax” value at κ opioid receptor [7] stood at 107.67%.
